In experiment [1] the target is p53 G245S-Δ22 (human) (UniProt P04637). Description: p53-antibody complexes captured on protein-G plates, detected via CM-1.
Experiment [2] addresses p53 R273H-Δ22 (human) (UniProt P04637). The description is as above.

With Pab1620 antibody, the results for the Pab1620 epitope presence, % of wild-type (% of wild-type) in experiment [1] and in experiment [2] were 55 and 100, respectively.

The values above are taken from patent US20150359843A1.
